The list is not random: actives were taken first. Their share in the collection is about 2.2%.
FGF22 binding: binders of human FGF22 protein, primary screen, FGF22 synaptogenesis inhibitor project, biophysical, thermal shift, single point | Fibroblast growth factor 22 (Homo sapiens), Q9HCT0 | recombinant FGF22 thermal shift, SYPRO orange fluorescence; percent of sucrose octasulfate shift, DMSO zero | activity (Tm shift, normalised), % at 9.99 µM | 340,000 tested, 1.5% active | AID 651658, 2012;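 active = mean Tm shift, scaled 0 neutral to 100 positive control, at about 1.3% or above, every replicate too, limit read from the data; inconclusive = no clear call, values can overlap the other calls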
ERp5 inh: inhibitors of ERp5-driven insulin aggregation, primary screen, biochemical, turbidity, absorbance 650 nm, single point. 90 min. inhibition, % at 9.99 µM. 350,000 tested, 0.05% active. AID 651711, 2012;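 active = mean replicate inhibition above about 25%, with every replicate also reaching it, limit read from the data, passing the limit was not always enough; inconclusive = only one of those two criteria met; inactive = neither criterion met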
PDI inh: inhibitors of human PDI, primary screen, biochemical, turbidity, single point, plate reader. 350,000 tested, 0.052% active. Protein disulfide-isomerase (Homo sapiens), P07237. inhibition, % at 10 µM. PDI insulin aggregation turbidity, A650, 90 min;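 active = mean inhibition across replicates of 30% or more, whatever share of single replicates reach that level; inconclusive = mean inhibition below 30% while every single replicate reaches 30%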
SIRT5 inh: SIRT5 desuccinylase inhibitors, primary screen, biochemical, fluorescence imaging, single point, set 5; NAD-dependent protein deacylase sirtuin-5, mitochondrial (Homo sapiens), Q9NXA8; Purified SirT5, succinyl-peptide AMC, trypsin-coupled fluorescence; inhibition, % at 15 µM; 330,000 tested, 1.1% active; in the data active = inhibition above about 15%; inconclusive = no clear call, values can overlap the other calls
UUG fidelity: alters start codon recognition fidelity in yeast; S. cerevisiae UUG-firefly luciferase reporter, luminescence/redox ratio; activity score, % at 18.7 µM; hit rate 0.13% among 350,000;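 active = replicate mean at a twofold rise or more, about +100% in these data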;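 also: firefly luciferase made from a UUG start codon reports start codon fidelity; reporter light over untreated wells divided by growth signal over untreated wells; some hits fall short of that in this replicate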
S100A4 inh HTS: inhibitors of S100A4-myosin IIA peptide binding, primary screen, biochemical, fluorescence polarization, TAMRA-MyoIIA peptide. Protein S100-A4 (Homo sapiens), P26447. 360,000 tested, 0.14% active. inhibition, % at 10.7 µM;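 active = mean inhibition of at least 70% across replicates, with every replicate also reaching that level; inconclusive = mean inhibition reaches 70% but some replicates fall short; inactive = mean inhibition below 70%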
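Test system: S100A4 monomer protein; Medium: HEPES pH 7.2 with CaCl2, KCl, NaCl, DTT, Triton; Probe or stimulus: TAMRA-labelled myosin IIA heavy-chain peptide probe, 5 nM; Doses: one dose per compound; Times: polarization read 5 min after assay mix addition, stable 5–60 min; Benchmarks: neutral control DMSO, positive control TFP.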
Numbers without * were called inactive; ? = inconclusive; · = no result.

1. C[C@H]1CCCCO[C@H](CN(C)Cc2ccc(C(F)(F)F)cc2)[C@@H](C)CN([C@@H](C)CO)C(=O)c2cc(NS(=O)(=O)c3ccccc3)ccc2O1
2. C[C@@H]1CN([C@H](C)CO)C(=O)c2cc(NS(=O)(=O)c3ccccc3)ccc2O[C@@H](C)CCCCO[C@H]1CN(C)Cc1ccc(C(F)(F)F)cc1
3. C[C@@H]1CN([C@@H](C)CO)C(=O)c2cc(NS(=O)(=O)c3ccccc3)ccc2O[C@@H](C)CCCCO[C@@H]1CN(C)Cc1ccc(C(F)(F)F)cc1
4. C[C@@H]1CN([C@H](C)CO)C(=O)c2cc(NC(=O)Cc3ccccc3)ccc2O[C@@H](C)CCCCO[C@@H]1CN(C)Cc1ccc2c(c1)OCO2
5. C[C@H](O)C#Cc1ccc2c(c1)O[C@H](CN(C)C(=O)Nc1ccccc1)[C@@H](C)CN([C@H](C)CO)S2(=O)=O
6. OCC1CCCN(C2CCN(Cc3nc(Cc4cccc(C(F)(F)F)c4)no3)CC2)C1 (stereo unspecified)
7. COC(=O)c1ccc(/C=N/NC(=O)C(=O)NCc2ccccc2)cc1
8. COC(=O)c1ccc(/C=N/NC(=O)CNc2cccc(C)c2)cc1

| Compound | 1 | 2 | 3 | 4 | 5 | 6 | 7 | 8 |
| --- | --- | --- | --- | --- | --- | --- | --- | --- |
| FGF22 binding | · | · | · | 0 | 0 | 43* | 43* | 0 |
| ERp5 inh | -2 | 3 | 0 | · | · | 0 | 7 | -2 |
| PDI inh | · | · | · | · | · | 5 | -6 | 2 |
| SIRT5 inh | 20* | 19* | 20* | · | · | 3 | 1 | 24* |
| UUG fidelity | 8 | 4 | 6 | 33 | 34 | · | · | · |
| S100A4 inh HTS | ? | -12 | 9 | · | · | 1 | -2 | 0 |

9. Cc1cccc(N/N=C/c2ccncc2)c1
10. CCCCNC(=O)C(=O)N/N=C/c1ccc(C(=O)OC)cc1
11. Cc1cccc(NC(=O)C(=O)N/N=C/c2ccncc2)c1
12. CCOc1cc(/C=N/NC(=O)CNc2cccc(C)c2)ccc1OC(=O)c1ccccc1
13. CC(=O)Nc1ccc(/C=N/NC(=O)CNC(=O)c2ccccc2)cc1
14. NCC[C@H]1CC[C@@H](NC(=O)C2CCCC2)[C@H](CO)O1
15. C[C@H](CO)N1C[C@H](C)[C@@H](CN(C)C(=O)c2ccncc2)Oc2cc(-c3cccc(C#N)c3)ccc2S1(=O)=O
16. COc1ccccc1S(=O)(=O)N[C@@H]1CC[C@H](CCNC(=O)C2CCCC2)O[C@@H]1CO

| Compound | 9 | 10 | 11 | 12 | 13 | 14 | 15 | 16 |
| --- | --- | --- | --- | --- | --- | --- | --- | --- |
| FGF22 binding | 0 | 0 | 43* | · | 43* | 0 | 0 | 0 |
| ERp5 inh | 2 | 1 | 2 | -5 | -6 | -3 | 8 | 1 |
| PDI inh | 7 | -3 | -2 | 0 | -1 | · | · | · |
| SIRT5 inh | -2 | -4 | 1 | 2 | -1 | -4 | -1 | 5 |
| UUG fidelity | -6 | · | · | -9 | · | -11 | -11 | -2 |
| S100A4 inh HTS | -1 | -1 | 4 | 0 | 6 | -8 | 4 | 0 |

Rewritten with values under each structure: part of the list above.
Fields – FGF22 binding, ERp5 inh, PDI inh, SIRT5 inh, UUG fidelity, S100A4 inh HTS
12: CCOc1cc(/C=N/NC(=O)CNc2cccc(C)c2)ccc1OC(=O)c1ccccc1
→ ·, -5, 0, 2, -9, 0
7: COC(=O)c1ccc(/C=N/NC(=O)C(=O)NCc2ccccc2)cc1
→ 43*, 7, -6, 1, ·, -2
15: C[C@H](CO)N1C[C@H](C)[C@@H](CN(C)C(=O)c2ccncc2)Oc2cc(-c3cccc(C#N)c3)ccc2S1(=O)=O
→ 0, 8, ·, -1, -11, 4
2: C[C@@H]1CN([C@H](C)CO)C(=O)c2cc(NS(=O)(=O)c3ccccc3)ccc2O[C@@H](C)CCCCO[C@H]1CN(C)Cc1ccc(C(F)(F)F)cc1
→ ·, 3, ·, 19*, 4, -12

Next section.
17. Cc1cccc(NCC(=O)N/N=C/c2cccc(Br)c2)c1
18. Cc1ccc(NCC(=O)N/N=C/c2cccc(Br)c2)cc1
19. COc1ccc(C(=O)N/N=C/c2c(CO)cnc(C)c2O)cc1
20. Cc1ncc(CO)c(/C=N/NC(=S)Nc2ccc(Cl)c(Cl)c2)c1O
21. O=C(NCCN1CCCC1)[C@H]1N[C@H]2c3ccc(C4=CCCCC4)c(=O)n3C[C@H]2[C@@H]1CO
22. O=C(COC(=O)c1c[nH]c(=O)[nH]c1=O)Nc1ccccc1F
23. Cc1c(C(=O)NCCCN2CCOCC2)oc2ccc(S(=O)(=O)N3CCOCC3)cc12
24. N#C/C(=N\Nc1ccc(Cl)cc1)C(N)=S

| Compound | 17 | 18 | 19 | 20 | 21 | 22 | 23 | 24 |
| --- | --- | --- | --- | --- | --- | --- | --- | --- |
| FGF22 binding | 0 | 0 | 44* | 1.5* | 0 | 43* | 43* | 0 |
| ERp5 inh | 0 | -3 | 1 | 1 | -1 | -2 | 5 | -3 |
| PDI inh | 0 | -1 | -2 | 2 | · | -3 | 20 | 3 |
| SIRT5 inh | 2 | 16* | -4 | 0 | -16 | 1 | -2 | · |
| UUG fidelity | · | -2 | · | · | · | · | · | -22 |
| S100A4 inh HTS | -16 | -7 | -2 | 4 | 4 | -3 | -4 | -4 |

25. Cc1ccc(N/N=C(\C#N)C(N)=S)cc1C
26. CC(C)CC#Cc1ccc([C@H]2[C@@H](CO)N3C(=O)CN(C(=O)NC4CCCC4)C[C@H]23)cc1
27. CCn1c(C)nc2cc(C(=O)OC)ccc21
28. CCCNC(=O)N[C@@H]1CC[C@@H](CCn2cc(C3CCCC3)nn2)O[C@@H]1CO
29. O=C(/C=C/c1ccc(OCCCF)cc1)Nc1ccnc(-c2ccncc2)n1
30. O=C(/C=C/c1ccc(OCCCF)cc1)Nc1ccnc(-c2cccnc2)n1
31. NC1=NC(=O)/C(=C/c2cc(Br)c(O)c(Br)c2)S1
32. NC1=NC(=O)/C(=C/c2ccc(Br)cc2)S1

| Compound | 25 | 26 | 27 | 28 | 29 | 30 | 31 | 32 |
| --- | --- | --- | --- | --- | --- | --- | --- | --- |
| FGF22 binding | 44* | · | 43* | 0 | 0 | 44* | 2.0* | 0 |
| ERp5 inh | 1 | -7 | 1 | 11 | 1 | -2 | -11 | 1 |
| PDI inh | -1 | · | -2 | · | -1 | -3 | 8 | -7 |
| SIRT5 inh | -3 | 1 | 1 | 0 | -1 | -4 | 5 | 3 |
| UUG fidelity | · | · | · | 1 | · | -13 | · | -24 |
| S100A4 inh HTS | 9 | -28 | -1 | -3 | -2 | 9 | -7 | 0 |

33. Cc1ccc(S(=O)(=O)N2C[C@H]3n4c(=O)ccc(=O)n4C[C@H](OC(=O)NCc4ccco4)[C@@]3(O)C2)cc1
34. CCCCCCn1c(=O)n2n(c1=O)[C@@H]1CN(S(=O)(=O)c3ccc(C)cc3)C[C@]1(O)[C@@H](OC(=O)NCc1ccccc1)C2
35. COc1ccccc1C(=O)NC(=S)Nc1ccc(NC(=O)c2ccco2)cc1
36. COc1ccc(NC(=S)NNC(=O)CNc2ccc(Cl)cc2)cc1
37. COc1ccc(NC(=S)NC(=O)c2ccccc2Cl)cc1
38. COc1ccc(NC(=O)c2cccnc2N2CCCC2)cc1
39. COc1ccc(S(=O)(=O)Nc2ccc3c(c2)CC(=O)N([C@H](C)CO)C[C@H](C)[C@@H](CN(C)Cc2ccc(C(=O)O)cc2)O3)cc1
40. O=C(NC(=S)Nc1ccc(CN2CCCCC2)cc1)c1ccco1

| Compound | 33 | 34 | 35 | 36 | 37 | 38 | 39 | 40 |
| --- | --- | --- | --- | --- | --- | --- | --- | --- |
| FGF22 binding | 0 | 0 | 1.5* | 1.4* | 43* | 0 | 0 | 43* |
| ERp5 inh | 0 | 8 | -1 | 1 | 1 | 7 | · | 0 |
| PDI inh | -6 | 2 | -4 | -6 | -5 | -5 | · | 6 |
| SIRT5 inh | 33* | 20* | 3 | 0 | -2 | 19* | · | 1 |
| UUG fidelity | -16 | 0 | -38 | · | -11 | -12 | · | · |
| S100A4 inh HTS | 9 | -1 | 3 | -1 | -3 | -6 | · | 2 |

41. O=C(NC(=S)Nc1ccc(CN2CCOCC2)cc1)c1ccco1
42. CCN(CC(=O)Nc1c(F)cccc1F)C(=O)CNC(=O)c1cccs1
43. CC(C)C#Cc1ccc2c(c1)O[C@@H](CN(C)CC1CC1)[C@@H](C)CN([C@H](C)CO)S2(=O)=O
44. COc1ccc(CNC(=O)c2cc(=O)c3cc(C)cc(C)c3o2)cc1

| Compound | 41 | 42 | 43 | 44 |
| --- | --- | --- | --- | --- |
| FGF22 binding | 0 | 0 | 0 | 0 |
| ERp5 inh | · | -4 | 5 | -3 |
| PDI inh | 2 | -1 | · | -13 |
| SIRT5 inh | -2 | -1 | 5 | 24* |
| UUG fidelity | -24 | -9 | 16 | -10 |
| S100A4 inh HTS | -19 | 87* | 0 | -15 |

Compound activity deposited in PubChem by Broad Institute.
